Where two headings read alike, the source gives them in different places.
Key:
[1] = total apomorphine, plasma, mean; for t1/2z: female monkeys, single SC injection 1.5 mg/kg (apomorphine equivalents)
[2] = Pharmacokinetics of free apomorphine in plasma after single SC infusion/injection; conditions: female monkeys, mean n=3; for t1/2z: single SC 1.5 mg/kg (apomorphine equivalents); for CL/Fobs / Vz/Fobs: single SC 1.5 mg/kg

## POZ10p20k[Apo(2-methylpropanoate)(4-triazolebutanoate)]10 [POZ-Apomorphine B]
[1]
  t1/2z: 106.9 h
[1]; single SC injection 1.5 mg/kg, 1.5 mg/kg
  Tmax: 107 h
[2]
  t1/2z: 143.4 h
  CL/Fobs: 1,638 ml/h/kg
  Vz/Fobs: 313,446 ml/kg

## POZ10p20k[Apo(4-butanoate)(4-triazolebutanoate)]10 [POZ-Apomorphine A]
[1]
  t1/2z: 20.9 h
[2]
  t1/2z: 22.5 h
  CL/Fobs: 2,272 ml/h/kg
  Vz/Fobs: 73,896 ml/kg
